Assay results taken from publication PMC8342319, “Predicting blood-to-plasma concentration ratios of drugs from chemical structures and volumes of distribution in humans” (Molecular Diversity, 2021).

Assays:
[1] = Measurement of Rb (blood-to-plasma concentration ratio) in spiked human blood, LC-MS/MS; assay type: in vitro ADME; conditions: heparinized human whole blood, footnote a: Rb is our experimental data, read-out: Rb_Human (blood-to-plasma concentration ratio)
[2] = human; median if multiple values were reported; ref numbers in Table S1; cited from earlier work

blood plasma ratio at 30 min, 5 µM [1]	Compound	Rb_Human (blood-to-plasma concentration ratio) [2]
0.95	CC(C)NCC(O)COc1ccc(COCCOC(C)C)cc1 (stereo not drawn) [Bisoprolol]	–
–	CCC1=C(C)CN(C(=O)NCCc2ccc(S(=O)(=O)NC(=O)N[C@H]3CC[C@H](C)CC3)cc2)C1=O [Glimepiride]	0.56
0.69	CC#CCC(C)[C@H](O)/C=C/[C@@H]1[C@H]2C/C(=C/CCCC(=O)O)C[C@H]2C[C@H]1O (stereo partly drawn) [Iloprost]	–
